# Measured values from patent US6610883B1, “Compounds having selective activity for retinoid X receptors, and means for modulation of processes mediated by retinoid X receptors” (Ligand Pharmaceuticals, Inc., priority 1992, dated 2003).
# Protein sequences, listed by entry. Tags and fused reporters are not part of them.
# UniProt P13631, whole entry: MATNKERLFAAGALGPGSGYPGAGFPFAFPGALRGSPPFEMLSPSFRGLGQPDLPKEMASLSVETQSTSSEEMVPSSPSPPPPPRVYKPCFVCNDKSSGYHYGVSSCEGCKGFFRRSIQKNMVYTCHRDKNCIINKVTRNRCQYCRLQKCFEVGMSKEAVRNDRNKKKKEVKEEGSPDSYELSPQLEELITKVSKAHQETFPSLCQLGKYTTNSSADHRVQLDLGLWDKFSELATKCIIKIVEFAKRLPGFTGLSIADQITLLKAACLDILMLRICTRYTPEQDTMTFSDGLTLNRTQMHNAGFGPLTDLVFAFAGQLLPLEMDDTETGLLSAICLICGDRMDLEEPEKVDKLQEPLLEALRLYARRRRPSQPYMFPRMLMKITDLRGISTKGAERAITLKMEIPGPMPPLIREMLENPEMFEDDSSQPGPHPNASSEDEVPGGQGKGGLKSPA
# UniProt P10276, whole entry: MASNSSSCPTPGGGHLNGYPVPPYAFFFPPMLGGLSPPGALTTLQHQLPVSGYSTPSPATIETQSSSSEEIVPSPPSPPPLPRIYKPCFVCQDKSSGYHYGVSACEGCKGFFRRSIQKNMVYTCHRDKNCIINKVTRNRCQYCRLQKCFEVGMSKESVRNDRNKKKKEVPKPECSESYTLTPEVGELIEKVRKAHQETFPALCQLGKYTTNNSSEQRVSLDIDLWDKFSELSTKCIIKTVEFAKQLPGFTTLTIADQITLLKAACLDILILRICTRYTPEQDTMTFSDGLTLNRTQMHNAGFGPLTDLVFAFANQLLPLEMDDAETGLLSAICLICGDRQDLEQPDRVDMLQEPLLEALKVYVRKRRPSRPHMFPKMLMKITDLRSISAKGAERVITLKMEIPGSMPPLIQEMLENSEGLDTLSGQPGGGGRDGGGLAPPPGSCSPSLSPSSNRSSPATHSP
# UniProt P10826, whole entry: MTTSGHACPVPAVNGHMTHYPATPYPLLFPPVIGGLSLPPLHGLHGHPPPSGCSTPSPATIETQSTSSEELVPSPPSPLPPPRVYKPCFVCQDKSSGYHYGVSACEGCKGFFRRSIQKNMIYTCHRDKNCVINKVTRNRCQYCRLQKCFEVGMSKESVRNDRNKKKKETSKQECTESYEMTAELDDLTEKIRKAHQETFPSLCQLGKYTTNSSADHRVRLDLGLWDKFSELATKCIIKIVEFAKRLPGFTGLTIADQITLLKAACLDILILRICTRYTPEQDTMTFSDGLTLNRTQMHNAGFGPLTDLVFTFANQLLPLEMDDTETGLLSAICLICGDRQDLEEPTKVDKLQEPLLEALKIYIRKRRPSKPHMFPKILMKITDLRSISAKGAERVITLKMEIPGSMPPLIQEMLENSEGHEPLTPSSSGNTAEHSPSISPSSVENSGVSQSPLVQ
# Key:
# RXRβ = target: T1, RXRβ (Mus musculus, UniProt P28704); experiment: Co-transfection (cis-trans) assay in CV-1 cells, RXRβ; assay type: cell-based; settings: CV-1, read-out: Efficacy
# T1 construct: expressed in transfected cells; host or cells: CV-1 (monkey kidney)
# T1 sequence (P28704 1-520): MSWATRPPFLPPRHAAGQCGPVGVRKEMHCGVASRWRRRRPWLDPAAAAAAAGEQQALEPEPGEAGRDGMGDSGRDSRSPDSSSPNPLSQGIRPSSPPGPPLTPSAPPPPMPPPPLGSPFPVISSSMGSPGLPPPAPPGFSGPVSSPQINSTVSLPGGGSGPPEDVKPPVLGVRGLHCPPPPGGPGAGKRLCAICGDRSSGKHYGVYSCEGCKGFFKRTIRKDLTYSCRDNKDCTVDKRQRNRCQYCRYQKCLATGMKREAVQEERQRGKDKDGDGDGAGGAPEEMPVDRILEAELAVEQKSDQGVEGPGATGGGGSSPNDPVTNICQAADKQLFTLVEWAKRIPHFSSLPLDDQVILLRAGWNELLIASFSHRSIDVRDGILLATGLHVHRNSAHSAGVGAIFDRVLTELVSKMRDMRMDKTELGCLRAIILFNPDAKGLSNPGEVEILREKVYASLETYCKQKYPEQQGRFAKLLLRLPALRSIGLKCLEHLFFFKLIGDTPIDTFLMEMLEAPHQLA
# RARγ = RARγ (Homo sapiens, UniProt P13631); experiment: Co-transfection (cis-trans) assay in CV-1 cells, RARγ; assay type: cell-based; parameters: expressed in transfected cells; host or cells: CV-1 (monkey kidney); settings: maximal response relative to all-trans-retinoic acid at 10^−5 M
# RARα = RARα (Homo sapiens, UniProt P10276); experiment: Co-transfection (cis-trans) assay in CV-1 cells, RARα; assay type: cell-based; parameters: expressed in transfected cells; host or cells: CV-1 (monkey kidney); settings: maximal response relative to all-trans-retinoic acid at 10^−5 M
# RXRγ = target: T2, RXRγ (Mus musculus, UniProt P28705); experiment: Co-transfection (cis-trans) assay in CV-1 cells, RXRγ; assay type: cell-based; settings: maximal response relative to all-trans-retinoic acid at 10^−5 M
# T2 construct: expressed in transfected cells; host or cells: CV-1 (monkey kidney)
# T2 sequence (P28705 1-463): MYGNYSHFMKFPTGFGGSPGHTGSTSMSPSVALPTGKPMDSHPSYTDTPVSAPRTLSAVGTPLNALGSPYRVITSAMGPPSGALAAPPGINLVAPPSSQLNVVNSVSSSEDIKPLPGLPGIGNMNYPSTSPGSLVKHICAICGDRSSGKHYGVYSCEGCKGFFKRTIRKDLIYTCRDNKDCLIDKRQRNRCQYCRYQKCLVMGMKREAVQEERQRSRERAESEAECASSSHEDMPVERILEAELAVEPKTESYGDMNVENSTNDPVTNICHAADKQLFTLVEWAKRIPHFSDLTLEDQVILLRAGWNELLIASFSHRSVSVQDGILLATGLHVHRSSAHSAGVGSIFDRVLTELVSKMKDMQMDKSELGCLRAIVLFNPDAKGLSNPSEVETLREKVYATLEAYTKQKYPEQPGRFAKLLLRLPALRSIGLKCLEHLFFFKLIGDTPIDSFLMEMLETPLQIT
# RARβ = RARβ (Homo sapiens, UniProt P10826); experiment: Co-transfection (cis-trans) assay in CV-1 cells, RARβ; assay type: cell-based; parameters: expressed in transfected cells; host or cells: CV-1 (monkey kidney); settings: maximal response relative to all-trans-retinoic acid at 10^−5 M
# [1] = system: RPMI18226, a multiple myeloma; experiment: Cell growth of RPMI18226; assay type: cell-based, human; settings: RPMI18226, cell number and growth in semi-solid medium
# [2] = system: ME180, a squamous cell carcinoma; experiment: Cell growth of ME180; assay type: cell-based, human; settings: ME180, cell number
compound,measurement,setting,value
"C=C(c1ccc(C(=O)O)cc1)c1cc2c(cc1C)C(C)(C)CCC2(C)C [3-methyl-TTNEB, 4-[1-(3,5,5,8,8-pentamethyl-5,6,7,8-tetrahydro-2-naphthyl)ethenyl]benzoic acid]",Emax at 10 µM,RXRβ,102%
"CC1=C(/C=C/C(C)=C\C=C\C(C)=C\C(=O)O)C(C)(C)CCC1 [9-cis-retinoic acid, reference compound]",Efficacy,RARγ,120%
same,Efficacy,RARα,100%
same,Efficacy,RXRγ,140%
same,Efficacy,RARβ,82%
"Interferonα2b: Interferon, compound which affects cellular proliferation",Effect on cell growth,[1],inhibit cell growth in a concentration-dependent manner
same,Effect on cell growth,[2],inhibit cell growth in a concentration-dependent manner
